In assay [1] the target is human M2 receptor (Homo sapiens, UniProt P08172). Nature of the assay: Functional M2-GIRK1/4 activation test: allosteric potency (EC50) and efficiency at EC20 acetylcholine (B-1.1). The note with it: for Efficiency: boosting of the acetylcholine effect at an EC20 acetylcholine concentration; for EC50: read-out: Receptor activity EC50, acetylcholine at EC20, allosteric potency, in some cases mean values from two or more determinations.

The chains behind the UniProt entries cited, without tags or fusion partners.
UniProt P08172, whole entry, looked up: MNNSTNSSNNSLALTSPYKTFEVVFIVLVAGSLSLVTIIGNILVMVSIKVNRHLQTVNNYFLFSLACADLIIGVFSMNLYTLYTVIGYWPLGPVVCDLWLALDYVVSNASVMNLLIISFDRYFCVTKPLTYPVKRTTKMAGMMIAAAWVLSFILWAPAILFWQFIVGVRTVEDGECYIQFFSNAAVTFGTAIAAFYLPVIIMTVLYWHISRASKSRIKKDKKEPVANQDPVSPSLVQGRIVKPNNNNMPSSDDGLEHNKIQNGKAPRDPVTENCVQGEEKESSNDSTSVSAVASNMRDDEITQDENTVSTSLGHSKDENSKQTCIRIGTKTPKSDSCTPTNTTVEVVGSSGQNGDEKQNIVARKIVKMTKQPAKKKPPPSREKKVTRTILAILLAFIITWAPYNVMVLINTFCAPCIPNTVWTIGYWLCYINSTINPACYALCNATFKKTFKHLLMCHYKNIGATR

Assay [2] deals with Human Recombinant M2 Muscarinic Acetylcholine Receptor (Homo sapiens, UniProt P08172). Nature of the assay: Selectivity test, Ca2+ release (Eurofins GPCRProfiler): allosteric modulator assay, M2 (B-3.2). It counts as cell-based. The note with it: for Selectivity (Shift EC50 M2/Shift EC50 M4): Table 2, quotient of allosteric shifts M2/M4.

Consider `O=C(NC12CC3CC(CC(C3)C1)C2)c1cn(-c2ccc(F)cc2F)c2nc(N3CCCC3=O)ccc2c1=O`, for which, in assay [1], the Efficiency is 99.0% and the EC50 is 14 nM.
For the molecule `O=C(NC12CC3CC(CC(C3)C1)C2)c1cn(-c2ccc(F)cc2F)c2nc(N3CCCC3)ccc2c1=O`, in assay [1], the Efficiency amounted to 91.0% and the EC50 was found to be 17 nM.
On to `Cc1c(Cl)c(OCC(=O)N2CCN(C)CC2)nc2sc(C(=O)NC3CC3)c(N)c12`, for which the Selectivity (Shift EC50 M2/Shift EC50 M4) in assay [2] (test substance concentration 1 μM) was 0.3; in assay [2] (test substance concentration 10 μM), 0.8. In addition, in assay [2] (Table 3, quotient of allosteric shifts M2/M1, test substance concentration 10 μM), the Selectivity (Shift EC50 M2/Shift EC50 M1) was 4. Further, in assay [2] (comment on Table 2), the “Selectivity M2 versus M4 (in words)” value is “clear tendency in favour of M4”.

One may read the EC50 as the concentration at which the effect is half-maximal.

The values above are taken from US20190367516A1 (Bayer Pharma Aktiengesellschaft, priority 2015, published 2019).
